Inhibition data for two compounds are collected here from PubChem BioAssay AID492956 (The Scripps Research Institute Molecular Screening Center, 2010).

SMILES strings stand for the structures. The entries are a selection whose mix differs from that of the whole data set. Activity calls are given as the source filed them.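 Rule for the calls: active = inhibition above the mean over all tested compounds plus 3 SD (cut at about 30% in these data); inactive = the rest.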

The target of this assay is Platelet-activating factor acetylhydrolase 2, cytoplasmic (Homo sapiens) (UniProt Q99487). Put plainly: PAFAH2 enzyme inhibitors, primary screen, biochemical, fluorescence polarization, human (AID 492956).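 Note: inhibitors block probe labeling of enzyme so polarization drops; 0% = enzyme with DMSO and 100% = wells lacking PAFAH2 protein.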 The note with it: recombinant PAFAH2, FP-rhodamine activity probe, at 3.39 µM, hits give high values. A general note: Fluorescence polarisation rises when a labelled molecule tumbles more slowly, as on binding a larger partner.
As a reminder, the inhibition is the change of the read-out against control, counted positive when it falls. On to `CCC(=O)N(c1ccccc1)C1(COC)CCN(CCc2cccs2)CC1`, for which the inhibition was inactive: -6.85%. As for `CCC(=O)N(c1ccccc1)C1(COC)CCN(CCn2nnn(CC)c2=O)CC1`, the inhibition is inactive: -1.81%.
